# Laboratory results taken from PubChem BioAssay (Tox21).
# The chains behind the UniProt entries cited, without tags or fusion partners. Where a name states a change or a piece, a line headed by the entry shows the natural chain unless it says otherwise.
# UniProt P22303: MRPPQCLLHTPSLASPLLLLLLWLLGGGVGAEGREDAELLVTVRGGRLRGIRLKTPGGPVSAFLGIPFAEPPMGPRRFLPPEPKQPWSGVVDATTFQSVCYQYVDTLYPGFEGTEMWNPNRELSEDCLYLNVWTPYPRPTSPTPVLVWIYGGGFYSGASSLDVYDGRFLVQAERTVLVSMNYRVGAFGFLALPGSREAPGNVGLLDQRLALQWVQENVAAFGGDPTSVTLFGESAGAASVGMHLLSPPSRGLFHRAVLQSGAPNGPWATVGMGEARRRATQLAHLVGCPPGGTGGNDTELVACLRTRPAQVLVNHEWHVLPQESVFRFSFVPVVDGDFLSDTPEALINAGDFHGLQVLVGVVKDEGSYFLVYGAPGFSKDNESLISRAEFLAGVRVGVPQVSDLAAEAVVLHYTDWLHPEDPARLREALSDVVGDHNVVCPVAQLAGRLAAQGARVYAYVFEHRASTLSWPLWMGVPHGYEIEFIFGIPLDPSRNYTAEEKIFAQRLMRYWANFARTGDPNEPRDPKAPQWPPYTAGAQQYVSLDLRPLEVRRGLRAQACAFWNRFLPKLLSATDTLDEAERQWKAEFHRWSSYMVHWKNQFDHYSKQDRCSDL
# UniProt Q12809: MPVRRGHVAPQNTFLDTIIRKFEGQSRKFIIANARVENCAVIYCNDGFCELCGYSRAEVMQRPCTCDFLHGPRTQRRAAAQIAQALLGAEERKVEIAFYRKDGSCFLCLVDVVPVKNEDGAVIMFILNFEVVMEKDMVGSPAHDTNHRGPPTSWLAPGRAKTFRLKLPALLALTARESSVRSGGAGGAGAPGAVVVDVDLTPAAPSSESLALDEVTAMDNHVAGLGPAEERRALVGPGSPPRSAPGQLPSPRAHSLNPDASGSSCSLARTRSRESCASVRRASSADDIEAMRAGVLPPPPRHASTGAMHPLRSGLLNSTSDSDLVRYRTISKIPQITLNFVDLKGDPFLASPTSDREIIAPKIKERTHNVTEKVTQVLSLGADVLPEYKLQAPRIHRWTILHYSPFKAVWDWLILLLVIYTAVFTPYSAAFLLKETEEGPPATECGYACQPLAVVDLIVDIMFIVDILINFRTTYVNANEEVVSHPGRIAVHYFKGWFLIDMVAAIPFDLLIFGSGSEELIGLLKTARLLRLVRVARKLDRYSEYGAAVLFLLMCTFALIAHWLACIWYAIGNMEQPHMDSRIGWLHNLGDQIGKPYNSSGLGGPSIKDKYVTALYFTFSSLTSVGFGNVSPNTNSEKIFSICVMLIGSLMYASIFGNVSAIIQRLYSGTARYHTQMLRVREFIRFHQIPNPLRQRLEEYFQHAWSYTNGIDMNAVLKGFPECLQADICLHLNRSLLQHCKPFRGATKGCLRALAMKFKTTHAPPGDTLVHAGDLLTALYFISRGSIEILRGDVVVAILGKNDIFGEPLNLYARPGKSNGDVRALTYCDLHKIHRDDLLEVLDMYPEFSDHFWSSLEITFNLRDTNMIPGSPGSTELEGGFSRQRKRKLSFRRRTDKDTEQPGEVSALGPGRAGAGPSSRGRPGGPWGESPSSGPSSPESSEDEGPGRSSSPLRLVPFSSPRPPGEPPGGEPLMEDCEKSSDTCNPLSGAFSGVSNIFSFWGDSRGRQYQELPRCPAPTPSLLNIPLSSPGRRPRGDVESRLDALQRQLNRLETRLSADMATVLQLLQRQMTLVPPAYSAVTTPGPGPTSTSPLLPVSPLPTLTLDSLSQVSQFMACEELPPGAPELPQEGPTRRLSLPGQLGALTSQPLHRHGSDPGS
# UniProt P33261, whole entry, looked up: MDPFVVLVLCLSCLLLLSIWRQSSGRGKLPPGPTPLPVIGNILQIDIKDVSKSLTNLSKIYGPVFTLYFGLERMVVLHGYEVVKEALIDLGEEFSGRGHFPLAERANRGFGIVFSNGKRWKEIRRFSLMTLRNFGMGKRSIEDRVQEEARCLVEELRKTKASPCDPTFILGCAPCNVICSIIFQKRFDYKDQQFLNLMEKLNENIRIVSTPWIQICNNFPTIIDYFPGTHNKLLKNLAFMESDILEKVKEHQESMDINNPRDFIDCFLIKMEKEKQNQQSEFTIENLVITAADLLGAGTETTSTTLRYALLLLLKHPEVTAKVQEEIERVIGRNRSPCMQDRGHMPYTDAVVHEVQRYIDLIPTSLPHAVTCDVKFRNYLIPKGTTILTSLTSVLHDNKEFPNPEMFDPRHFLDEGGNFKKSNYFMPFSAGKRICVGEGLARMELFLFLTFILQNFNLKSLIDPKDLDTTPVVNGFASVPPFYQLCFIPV
# UniProt P05177, whole entry, looked up: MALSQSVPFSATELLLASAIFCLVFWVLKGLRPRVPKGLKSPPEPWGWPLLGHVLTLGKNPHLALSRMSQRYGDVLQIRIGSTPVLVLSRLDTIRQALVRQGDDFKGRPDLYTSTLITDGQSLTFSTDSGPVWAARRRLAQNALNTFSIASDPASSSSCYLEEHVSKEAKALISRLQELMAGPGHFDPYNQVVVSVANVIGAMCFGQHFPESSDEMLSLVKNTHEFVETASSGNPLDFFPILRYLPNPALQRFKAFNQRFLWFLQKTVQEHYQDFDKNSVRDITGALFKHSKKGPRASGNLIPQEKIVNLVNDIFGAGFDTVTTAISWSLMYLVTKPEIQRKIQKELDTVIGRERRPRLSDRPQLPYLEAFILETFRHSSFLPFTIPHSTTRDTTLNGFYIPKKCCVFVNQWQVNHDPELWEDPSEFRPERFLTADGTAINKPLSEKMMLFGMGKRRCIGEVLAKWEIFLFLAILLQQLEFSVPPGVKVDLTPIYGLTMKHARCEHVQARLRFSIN
# UniProt P10635, whole entry, looked up: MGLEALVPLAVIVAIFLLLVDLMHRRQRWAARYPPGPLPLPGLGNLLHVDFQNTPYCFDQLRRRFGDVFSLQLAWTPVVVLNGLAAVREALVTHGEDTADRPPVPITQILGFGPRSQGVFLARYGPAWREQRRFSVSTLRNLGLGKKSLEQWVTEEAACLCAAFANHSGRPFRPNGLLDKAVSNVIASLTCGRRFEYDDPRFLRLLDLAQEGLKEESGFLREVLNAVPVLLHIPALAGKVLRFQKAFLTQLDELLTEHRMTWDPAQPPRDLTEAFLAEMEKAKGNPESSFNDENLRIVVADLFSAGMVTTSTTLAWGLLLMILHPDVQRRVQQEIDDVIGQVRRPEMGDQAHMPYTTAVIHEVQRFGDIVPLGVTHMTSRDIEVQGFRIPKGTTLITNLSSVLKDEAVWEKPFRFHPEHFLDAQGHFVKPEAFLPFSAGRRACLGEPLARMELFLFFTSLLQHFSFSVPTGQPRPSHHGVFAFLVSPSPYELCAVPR
# UniProt P11712, whole entry, looked up: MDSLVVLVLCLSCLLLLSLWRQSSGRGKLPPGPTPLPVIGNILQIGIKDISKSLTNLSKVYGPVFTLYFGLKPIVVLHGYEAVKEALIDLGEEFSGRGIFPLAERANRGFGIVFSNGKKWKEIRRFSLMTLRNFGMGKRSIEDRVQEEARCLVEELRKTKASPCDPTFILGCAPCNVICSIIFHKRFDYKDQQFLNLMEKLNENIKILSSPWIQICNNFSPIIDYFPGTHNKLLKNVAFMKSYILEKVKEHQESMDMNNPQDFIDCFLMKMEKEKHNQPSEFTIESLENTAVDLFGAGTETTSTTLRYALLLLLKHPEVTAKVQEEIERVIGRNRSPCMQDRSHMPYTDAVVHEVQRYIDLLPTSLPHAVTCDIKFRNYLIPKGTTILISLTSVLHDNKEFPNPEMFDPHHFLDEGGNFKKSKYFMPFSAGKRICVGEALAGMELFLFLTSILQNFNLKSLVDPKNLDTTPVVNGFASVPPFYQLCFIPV
# “And” between values parts separate entries of the source, which are not always exact repeats. Identical values can stand only once. The list shows a part of the results, in another mix than the full data. Inconclusive results are not listed. Where a structure was tested more than once in an assay, its records may differ in their call. The source made the active and inactive calls. Unless noted, the call rests on the fitted dose curve.
# Key:
# [1] = biological target: Acetylcholinesterase (Homo sapiens) (UniProt P22303); test: Acetylcholinesterase (AChE) small molecule antagonists: enzyme-based qHTS assay (AID 1347397); settings: AChE enzyme activity inhibition; further: potency means the concentration at half of the fitted maximal effect; nearly all actives have a fitted effect of over 55% in size
# How it was run: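 Recombinant human AChE (50 mU/mL) preincubated with compound 30 min at room temperature; acetylthiocholine plus DTNB then added, and thiocholine formation read colorimetrically after 10 min at room temperature. DMSO served as vehicle control.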
# [2] = biological target: Acetylcholinesterase (Homo sapiens) (UniProt P22303); test: Acetylcholinesterase (AChE) small molecule antagonists: fluorescence cell-based qHTS assay (AID 1347398); settings: SH-SY5Y cells, AChE activity; further: potency means the concentration at half of the fitted maximal effect; nearly all actives have a fitted effect of over 50% in size
# How it was run: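 SH-SY5Y cells (2000/well), attached overnight, incubated with compound 30 min at 37 C. Acetylthiocholine plus Thiolite Green then added for 40 min at room temperature. Thiocholine fluorescence (Ex/Em 490/520 nm) reports cellular AChE activity.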
# [3] = biological target: Acetylcholinesterase (Homo sapiens) (UniProt P22303); test: Acetylcholinesterase (AChE) small molecule antagonists: enzyme-based qHTS assay with human liver microsomes (AID 1347399); settings: qHTS inhibition; further: potency means the concentration at half of the fitted maximal effect; nearly all actives have a fitted effect of over 60% in size
# Source text: National Center for Advancing Translational Sciences [NCATS]
# Division of Preclinical Innovation [DPI]
# U.S. Environmental Protection Agency [EPA]
# National Institutes of Environmental Health Sciences [NIEHS]
# National Toxicology Program [NTP]
# U.S. Food and Drug Administration [FDA]
# Acetylcholinesterase (AChE) is the primary cholinesterase in the body that hydrolyzes a key neurotransmitter, acetylcholine. Inhibition of AChE activity can lead to neurotoxicity. The known inhibitors include organophosphorous pesticides (OP), chemical warfare agents, drugs, and various phytochemicals. Some compounds like OP compounds may need metabolic activation to be active AChE inhibitors. The cytochrome P450 (CYP) superfamily in the human microsomes is responsible for the metabolism of various endogenous and exogenous compounds.
# An enzyme-based assay with the recombinant human AChE, human liver microsomes and Amplite Colormetric acetylcholinesterase assay kit (AAT Bioquest, Sunnyvale, CA) was used to evaluate compounds in the Tox21 10K library that need metabolic activation for AChE inhibition. The assay uses 5, 5-dithiobis-(2-nitrobenzoic acid) (DTNB) to quantify the thiocholine produced from the hydrolysis of acetylthiocholine by AChE.
# Tox21 Assay Protocol Summary:
# For the enzyme-based AChE assay with microsomes addition, a mixture of human AChE (50 mU/mL) and human liver microsomes (0.25 mg/mL, final concentration) in 3 uL/well was dispensed into black, clear-bottom 1536-well plates using a Multidrop Combi dispenser (Thermo Scientific, MA). Then, 23 nL of compound or DMSO (vehicle control) was transferred into the assay plates by a Pintool Station (Wako Automation, CA). Following compound addition, 1 uL of NADPH (0.25 mg/mL, final concentration) was transferred to the assay plate by a Flying Reagent Dispenser (Beckman Coulter, CA). The plates were incubated for 30 min at 37 C and 5% CO2, followed by the addition of 4 uL of colorimetric detection cocktail solution (DTNB, acetylthiocholine) into each well using a Flying Reagent Dispenser (Beckman Coulter, CA) and then 10 min incubation at room temperature.
# [4] = biological target: Voltage-gated inwardly rectifying potassium channel KCNH2 (Homo sapiens) (UniProt Q12809); test: Human Ether-a-go-go-Related Gene (hERG) channel small molecule antagonists: fluorescence cell-based qHTS assay (AID 1671200; active means well fitted curve in the direction sought with a large enough effect in the repeat runs; an effect the other way counts as inactive or inconclusive; further: potency means the concentration at half of the fitted maximal effect; nearly all actives have a fitted effect of over 50% in size); settings: hERG-U2OS cells, FluxOR thallium flux fluorescence
# How it was run: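 Thallium flux as potassium surrogate: FluxOR II dye loaded 1 h at room temperature into hERG-expressing U2OS cells, then stimulus buffer added after 10 min. Kinetic 480 nm excitation/540 nm emission read, 2 min.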
# [5] = qHTS assay to identify small molecule agonists of the NFkB signaling pathway (AID 1159509; active means well fitted curve in the direction sought with a large enough effect in the signal ratio in the repeat runs, not every such curve was filed as active; the % refers to the signal ratio; further: on the % scale 0 is the no-effect control and ±100 the full control effect); settings: NFkB-bla ME-180 cells, beta-lactamase FRET ratio, 5 h
# How it was run: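 ME-180 NFkB-bla, 2,000 cells/well, overnight plating; cpd pinned in DMSO, 5 h 37 C; B/G FRET substrate 1.5 h RT; ex 405, em 460/530 nm.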
# [6] = biological target: Cytochrome P450 2C19 (Homo sapiens) (UniProt P33261); test: Cytochrome P450 Family 2 Subfamily C Member 19 (CYP2C19) small molecule antagonists: luciferase reporter qHTS assay (AID 1671197; active means well fitted curve in the direction sought with a large enough effect in the repeat runs; an effect the other way counts as inactive or inconclusive; further: potency means the concentration at half of the fitted maximal effect; nearly all actives have a fitted effect of over 65% in size); settings: P450-Glo CYP2C19 enzyme, luciferin luminescence, 1 h
# How it was run: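 Enzyme-substrate mix with proluciferin substrate (P450-Glo CYP2C19 system) preincubated with compounds 10 min at room temperature; NADPH regeneration solution added, 37C for 1 h; detection reagent stops reaction, luminescence read after 20 min. Ketoconazole positive control.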
# [7] = biological target: Cytochrome P450 1A2 (Homo sapiens) (UniProt P05177); test: Cytochrome P450 Family 1 Subfamily A Member 2 (CYP1A2) small molecule antagonists: luciferase reporter qHTS assay (AID 1671199; active means well fitted curve in the direction sought with a large enough effect in the repeat runs; an effect the other way counts as inactive or inconclusive; further: potency means the concentration at half of the fitted maximal effect; nearly all actives have a fitted effect of over 50% in size); settings: P450-Glo CYP1A2 enzyme, luciferin luminescence, 1 h
# How it was run: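 Human CYP1A2 activity measured with a P450-Glo proluciferin substrate; compounds in DMSO preincubated 10 min at room temperature with enzyme-substrate mix, then NADPH regeneration system added for 1 h. Luciferin detection reagent, 20 min, luminescence read.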
# [8] = biological target: Cytochrome P450 2D6 (Homo sapiens) (UniProt P10635); test: Cytochrome P450 Family 2 Subfamily D Member 6 (CYP2D6) small molecule antagonists: luciferase reporter qHTS assay (AID 1671196; active means well fitted curve in the direction sought with a large enough effect in the repeat runs; an effect the other way counts as inactive or inconclusive; further: potency means the concentration at half of the fitted maximal effect; nearly all actives have a fitted effect of over 50% in size); settings: P450-Glo CYP2D6 enzyme assay, luciferin luminescence, 1 h
# How it was run: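 CYP2D6 enzyme–substrate mix was held with compound for 10 min at room temperature, then NADPH regeneration solution was added and the reaction ran 1 h at room temperature. Luciferin product was detected by luminescence after 20 min with detection reagent.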
# [9] = biological target: Cytochrome P450 2C9 (Homo sapiens) (UniProt P11712); test: Cytochrome P450 Family 2 Subfamily C Member 9 (CYP2C9) small molecule antagonists: luciferase reporter qHTS assay (AID 1671198; active means well fitted curve in the direction sought with a large enough effect in the repeat runs; an effect the other way counts as inactive or inconclusive); settings: P450-Glo CYP2C9 enzyme assay, luciferin luminescence
# How it was run: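 P450-Glo proluciferin substrate with CYP2C9 enzyme; 10 min RT preincubation, then NADPH regeneration 1 h at 37C; luciferin detection reagent 20 min RT, luminescence in relative luminescence units.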
compound,measurement,setting,value
CO[C@]12C[C@@H](COC(=O)c3cncc(Br)c3)CN(C)[C@@H]1Cc1cn(C)c3cccc2c13,Potency,[1],active: 6.17 µM
same,Potency,[2],active: 0.55 µM
same,Potency,[3],active: 27.5 µM
CCOP(=O)(OCC)O/C(=C/Cl)c1ccc(Cl)cc1Cl,Potency,[1],active: 2 µM
same,Potency,[2],active: 1.26 µM
same,Potency,[3],active: 7.1 µM
Fc1ccc(C(OCCN2CCN(CCCc3ccccc3)CC2)c2ccc(F)cc2)cc1,Potency,[4],active: 0.0601 µM
Nc1c2ccccc2nc2ccccc12,Potency,[1],active: 1.11 µM and active: 776 nM
same,Potency,[2],active: 125 nM and active: 27.5 nM
same,Potency,[3],active: 7.01 µM and active: 15.5 µM
CC[N+](CC)(CC)CC,activation,[5]; at 61 µM (top of the series),inactive: -0.0367%
same,activation,[5]; at 78.8 µM (top of the series),inactive: 0.134%
c1ccc(C[n+]2cccc3ccccc32)cc1,Potency,[1],active: 28.3 µM
same,Potency,[2],active: 10 µM
O=[N+]([O-])c1cc([N+](=O)[O-])c2ccccc2c1,Potency,[6],active: 20 µM
same,Potency,[7],active: 0.0878 µM
Oc1c(Cl)cc(Cl)c(Cl)c1Cc1c(O)c(Cl)cc(Cl)c1Cl,Potency,[1],active: 11.2 µM and active: 10 µM and active: 9.77 µM
same,Potency,[2],active: 70.8 µM
CN(C)c1ccc2nc3ccc(=[N+](C)C)cc-3sc2c1,Potency,[1],active: 2.16 µM and active: 2 µM and active: 2.45 µM
same,Potency,[2],active: 1.21 µM and active: 894 nM and active: 1.23 µM
same,Potency,[3],active: 10.8 µM and active: 6.33 µM and active: 12.3 µM
O=c1[nH]c2ccccc2n1C1CCN(CCCC(c2ccc(F)cc2)c2ccc(F)cc2)CC1,Potency,[8],active: 2.52 µM and active: 3.89 µM
same,Potency,[6],active: 22.4 µM
same,Potency,[9],active: 20 µM and active: 15.5 µM
CCN(CC)CCCC(C)Nc1c2ccc(Cl)cc2nc2ccc(OC)cc12 (centres undefined),Potency,[1],active: 27.5 µM
same,Potency,[2],active: 6.92 µM
COc1ccc2cc3[n+](cc2c1OC)CCc1cc2c(cc1-3)OCO2,Potency,[1],active: 2.85 µM and active: 3.47 µM
same,Potency,[2],active: 1.43 µM and active: 1.1 µM
same,Potency,[3],active: 16 µM and active: 24.5 µM
O=[N+]([O-])c1cccc2cccc([N+](=O)[O-])c12,Potency,[6],active: 40.1 µM
same,Potency,[7],active: 3.18 µM
CNC(=O)O/N=C/C(C)(C)S(C)(=O)=O,Potency,[1],active: 35.7 µM and active: 22.4 µM
same,Potency,[2],active: 3.57 µM and active: 11.2 µM
CNC(=O)O/N=C/C(C)(C)SC,Potency,[1],active: 18 µM and active: 11.2 µM
same,Potency,[2],active: 1.27 µM and active: 3.17 µM
same,Potency,[3],active: 40.3 µM and active: 31.7 µM
CCCCCCCCCCC[C@@H](C[C@@H]1OC(=O)[C@H]1CCCCCC)OC(=O)[C@H](CC(C)C)NC=O,Potency,[1],active: 3.47 µM
COc1cc(C(=O)NCc2ccc(OCCN(C)C)cc2)cc(OC)c1OC,Potency,[1],active: 15.5 µM
same,Potency,[2],active: 9.77 µM
